This experiment has as its target Norepinephrine transporter (Rattus norvegicus, UniProt Q9JIA2).

Usually Ki stands for the equilibrium dissociation constant of an inhibitor or competing ligand from its target. A high value points to a looser hold on the target. As to `CNCC[C@@H](Oc1cccc2ccccc12)c1cccs1` [(R)-duloxetine], affinity was put at a Ki of 15.9 nM.

For the origin of these results see BindingDB's records for doi:10.1038/npp.1993.4 (Eli Lilly, 1993).
